Results reported in patent US7115624B1, “Method of inhibiting protein tyrosine phosphatase 1B and/or T-cell protein tyrosine phosphatase 4 and/or other PTPases with an Asp residue at position 48” (Novo Nordisk A/S, priority 1999, dated 2006).

The chains behind the UniProt entries cited, without tags or fusion partners. Residues count along the entry.
UniProt P23467, 1703-1963 limits assumed: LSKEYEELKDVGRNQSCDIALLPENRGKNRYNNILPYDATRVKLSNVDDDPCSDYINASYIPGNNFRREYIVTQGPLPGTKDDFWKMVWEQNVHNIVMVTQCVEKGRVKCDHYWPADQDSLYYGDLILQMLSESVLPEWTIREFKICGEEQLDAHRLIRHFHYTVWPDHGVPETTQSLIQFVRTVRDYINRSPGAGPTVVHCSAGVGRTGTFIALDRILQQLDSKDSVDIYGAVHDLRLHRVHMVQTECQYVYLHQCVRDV

How the values were obtained:
Assay in all cases: PTPase inhibition, p-nitrophenyl phosphate substrate, Ki
Type in all cases: biochemical
[1] = target: T1, PTP1B (Homo sapiens, UniProt P18031)
T1 sequence (P18031 1-321): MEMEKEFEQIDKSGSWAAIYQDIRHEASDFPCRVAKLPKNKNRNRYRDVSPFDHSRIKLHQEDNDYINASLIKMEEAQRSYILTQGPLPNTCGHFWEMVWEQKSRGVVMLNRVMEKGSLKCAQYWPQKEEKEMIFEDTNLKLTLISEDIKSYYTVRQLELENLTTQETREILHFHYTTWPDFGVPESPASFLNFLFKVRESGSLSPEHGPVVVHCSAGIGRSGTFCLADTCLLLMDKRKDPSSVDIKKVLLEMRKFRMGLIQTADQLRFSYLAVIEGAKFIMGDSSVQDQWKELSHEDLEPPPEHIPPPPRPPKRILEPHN

[2] = target: PTPβ (Homo sapiens, UniProt P23467)
[3] = target: T2, CD45 (Homo sapiens, UniProt P08575); settings: pH 5.5
T2 sequence (P08575 599-1306 limits assumed): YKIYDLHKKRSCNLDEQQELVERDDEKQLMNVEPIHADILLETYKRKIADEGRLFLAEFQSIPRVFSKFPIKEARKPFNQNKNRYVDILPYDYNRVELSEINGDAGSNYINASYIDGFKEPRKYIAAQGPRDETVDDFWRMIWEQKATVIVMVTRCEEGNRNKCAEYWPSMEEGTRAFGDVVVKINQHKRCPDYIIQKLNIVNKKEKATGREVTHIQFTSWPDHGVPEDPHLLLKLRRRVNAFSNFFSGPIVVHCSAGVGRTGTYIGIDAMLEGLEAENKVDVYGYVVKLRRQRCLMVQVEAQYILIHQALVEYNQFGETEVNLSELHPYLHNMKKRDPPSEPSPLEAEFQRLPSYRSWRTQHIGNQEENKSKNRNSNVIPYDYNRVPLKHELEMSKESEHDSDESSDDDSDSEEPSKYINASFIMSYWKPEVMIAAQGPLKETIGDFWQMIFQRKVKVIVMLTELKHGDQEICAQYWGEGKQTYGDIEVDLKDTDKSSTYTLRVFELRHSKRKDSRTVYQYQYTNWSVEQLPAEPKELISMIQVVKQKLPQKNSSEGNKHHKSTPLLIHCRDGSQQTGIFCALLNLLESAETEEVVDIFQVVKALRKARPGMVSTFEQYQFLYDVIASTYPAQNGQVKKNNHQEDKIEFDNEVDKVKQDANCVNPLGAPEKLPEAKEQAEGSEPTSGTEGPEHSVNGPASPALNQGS

Ki [1]	Ki [2]	fold decrease of potency against CD45 [3]	fold increase of affinity for PTP1B ([1]; pH 5.5)	SMILES
15 µM and 63 µM	12 µM and 17 µM			O=C(O)C(=O)Nc1sc2c(c1C(=O)O)CCOC2 [Example 2-OTPA, 2-(Oxalyl-amino)-4,7-dihydro-thieno[2,3-c]pyran-3-carboxylic acid]
		2 fold	about 20 fold	O=C(O)C(=O)Nc1sc2c(c1C(=O)O)CCNC2 [Example 2-OTPyA, 2-(Oxalyl-amino)-4,5,6,7-tetrahydro-thieno[2,3-c]pyridine-3-carboxylic acid]

Values joined by “and” are separate entries in the source; they are usually repeats but may differ in a detail not shown here. Equal entries are not always repeated.
